Key:
[1] = target: T1, E3 ubiquitin-protein ligase CBL-B (Homo sapiens, UniProt Q13191); details: CD3-positive T cell, dose 3.2-10000 nM, time 75.0 min
[2] = target: T1, E3 ubiquitin-protein ligase CBL-B; details: CD3-positive T cell, dose 3.2-10000 nM, time 75.0 min; remark: listed apart in the source

The chains behind the UniProt entries cited, without tags or fusion partners.
UniProt Q13191, whole entry: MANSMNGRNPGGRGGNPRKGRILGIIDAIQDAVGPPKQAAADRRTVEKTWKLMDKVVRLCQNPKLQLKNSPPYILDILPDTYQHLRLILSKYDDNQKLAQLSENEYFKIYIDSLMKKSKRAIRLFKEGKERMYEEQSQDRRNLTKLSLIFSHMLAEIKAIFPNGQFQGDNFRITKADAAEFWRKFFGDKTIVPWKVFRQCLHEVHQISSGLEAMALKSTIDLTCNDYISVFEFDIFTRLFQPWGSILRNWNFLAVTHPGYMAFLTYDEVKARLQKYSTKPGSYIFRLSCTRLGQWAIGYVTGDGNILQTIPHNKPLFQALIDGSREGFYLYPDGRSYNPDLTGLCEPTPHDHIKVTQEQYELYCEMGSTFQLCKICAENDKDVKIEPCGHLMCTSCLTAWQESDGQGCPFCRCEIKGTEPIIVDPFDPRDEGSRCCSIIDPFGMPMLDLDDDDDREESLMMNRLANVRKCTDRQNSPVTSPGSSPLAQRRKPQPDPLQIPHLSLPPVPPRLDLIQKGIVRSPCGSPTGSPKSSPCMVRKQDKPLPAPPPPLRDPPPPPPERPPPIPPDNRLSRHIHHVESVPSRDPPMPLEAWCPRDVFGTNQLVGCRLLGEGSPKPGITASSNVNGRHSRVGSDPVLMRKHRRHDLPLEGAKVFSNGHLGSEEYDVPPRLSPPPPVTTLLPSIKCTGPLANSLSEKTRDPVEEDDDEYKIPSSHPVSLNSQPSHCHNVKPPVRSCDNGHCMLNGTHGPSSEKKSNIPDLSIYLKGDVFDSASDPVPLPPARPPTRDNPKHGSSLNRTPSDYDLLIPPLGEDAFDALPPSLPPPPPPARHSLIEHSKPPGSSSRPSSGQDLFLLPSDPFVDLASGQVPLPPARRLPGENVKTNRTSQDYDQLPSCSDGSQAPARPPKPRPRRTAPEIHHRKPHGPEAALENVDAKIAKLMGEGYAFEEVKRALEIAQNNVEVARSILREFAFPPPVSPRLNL

C[C@H]1CCCN(Cc2cc3c(C(F)(F)F)cn(-c4cccc([C@]5(c6nncn6C)C[C@@H](C)C5)c4)c(=O)c3[nH]2)C1
inhibition [1]: Dose-dependent-effect | inhibition [2]: Dose-dependent-effect

— ChEMBL document CHEMBL6177960, “Rational design, optimization, and biological evaluation of novel pyrrolo-pyridone derivatives as potent and orally active Cbl-b inhibitors” (Eur J Med Chem, 2025)
